Values quoted from earlier work in US7618630B2, “Methods of treating multiple myeloma and myeloma-induced bone resorption using integrin antagonists” (Board of Regents, The University of Texas System, priority 1998, dated 2009).

By UniProt entry, the sequences of proteins in these tests, tags left out. Residues count along the entry.
UniProt P13612, 34-1032: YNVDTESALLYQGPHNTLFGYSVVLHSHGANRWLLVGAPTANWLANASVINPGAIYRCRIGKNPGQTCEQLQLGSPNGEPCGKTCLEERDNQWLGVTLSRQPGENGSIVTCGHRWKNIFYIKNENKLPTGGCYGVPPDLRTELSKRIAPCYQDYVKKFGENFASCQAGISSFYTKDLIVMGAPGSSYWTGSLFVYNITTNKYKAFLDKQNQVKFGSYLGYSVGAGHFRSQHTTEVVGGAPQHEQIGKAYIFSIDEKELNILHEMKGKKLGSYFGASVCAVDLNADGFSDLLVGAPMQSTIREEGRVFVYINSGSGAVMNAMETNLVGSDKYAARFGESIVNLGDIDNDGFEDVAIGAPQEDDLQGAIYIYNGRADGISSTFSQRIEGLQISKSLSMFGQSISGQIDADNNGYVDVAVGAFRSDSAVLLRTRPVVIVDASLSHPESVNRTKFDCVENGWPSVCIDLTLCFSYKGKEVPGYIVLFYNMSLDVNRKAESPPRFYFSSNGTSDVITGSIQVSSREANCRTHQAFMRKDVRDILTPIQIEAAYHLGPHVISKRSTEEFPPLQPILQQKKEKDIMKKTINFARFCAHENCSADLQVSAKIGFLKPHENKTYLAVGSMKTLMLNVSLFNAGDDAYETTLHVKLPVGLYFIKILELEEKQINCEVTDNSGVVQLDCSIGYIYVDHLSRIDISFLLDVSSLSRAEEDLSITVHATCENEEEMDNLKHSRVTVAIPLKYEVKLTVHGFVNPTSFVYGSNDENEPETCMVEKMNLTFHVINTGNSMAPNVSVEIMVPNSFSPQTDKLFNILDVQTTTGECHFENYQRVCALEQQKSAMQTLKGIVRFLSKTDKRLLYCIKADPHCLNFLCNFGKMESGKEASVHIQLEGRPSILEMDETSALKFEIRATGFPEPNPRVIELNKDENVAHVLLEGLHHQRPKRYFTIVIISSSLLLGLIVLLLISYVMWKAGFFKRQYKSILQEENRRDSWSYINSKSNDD

Molecular target: VLA-4 (Homo sapiens, UniProt P05556+P13612)
Settings: cited from earlier work

Substance: Glu-Ile-Leu-Asp-val-Pro-ser-Thr
- inhibitory activity against fibronectin-dependent cell adhesion: possessed inhibitory activity against fibronectin-dependent cell adhesion
